Experiments:
Assay type in all cases: cell-based
[1] = test system: tumor cell lines with KRAS variant genotype; assay: Intracellular uptake of human serum albumin, fluorescence microscopy; details: KRAS variant: AsPC3, Mia-paca2, Capan-1, panC1, 8988T, PC3, CT26, HCT116, SW480, H2122, A549
Source text: (§1) In contrast, it was not found in the tumor cell lines with wild-type KRAS genotype (FIG. 9 and FIG. 10).

[2] = test system: tumor cell lines with wild-type KRAS genotype; assay: as above; details: wild-type KRAS: BXPC3, Pan02, DU145, HT29, MCF7
Source text: as §1

[3] = test system: tumor cell lines with wild-type PTEN protein genotype; assay: Intracellular uptake of FITC-labeled human serum albumin; details: wild-type PTEN: DU145, HT29
Source text: (§2) In contrast, it was not found in those with wild-type PTEN protein genotype (FIG. 12 and FIG. 13).

[4] = test system: tumor cell lines with PTEN protein loss genotype; assay: as above; details: PTEN protein loss: BT579, MDA-MB436, H1299
Source text: as §2

## human serum albumin: fluorescently labeled human serum albumin used for cell uptake
[1]
  intracellular albumin uptake: large amounts of intracellular albumin uptake
[2]
  intracellular albumin uptake: not found
[3]
  intracellular albumin uptake: not found
[4]
  intracellular albumin uptake: large amounts of intracellular albumin uptake
